Structures can show the parent of a compound that is named as a salt.
Test system: Primary forebrain neurons dissociated from C57BL/6J mice
Test: Protection of ΔΨm (TMRM) against oxidative stress by Luperox
Assay type: cell-based, mouse
Details: for protection of ΔΨm (TMRM fluorescence) in peroxide challenged neurons / Luperox insult: 55 μM Luperox, 24 h; for Luperox insult / protection against both insults (increased oxidative stress and 3×TG): TMRM; for protection against both insults (increased oxidative stress and 3×TG): Luperox and 3×TG neurons

Compound | protection of ΔΨm (TMRM fluorescence) in peroxide challenged neurons | Luperox insult | protection against both insults (increased oxidative stress and 3×TG)
CCCCOc1cc(C(=O)OCCN(CC)CC)ccc1N [benoxinate hydrochloride] | full protection | rescues | protect against both insults
O=c1c(-c2ccc(O)cc2)coc2cc(O)cc(O)c12 [GENISTEIN] | full protection | rescues | protect against both insults
CN(C)CCC=C1c2ccccc2COc2ccccc21 [doxepin hydrochloride] | full protection | rescues | protect against both insults
CCCCOc1ccc(C(=O)CCN2CCCCC2)cc1 [DYCLONINE HYDROCHLORIDE] | full protection | rescues | protect against both insults
COC(=O)[C@@H]1[C@H]2C[C@H]3c4[nH]c5ccccc5c4CCN3C[C@@H]2CC[C@@H]1O [YOHIMBINE HYDROCHLORIDE] | full protection | rescues | protect against both insults

— US20230003721A1, “MITOTHERAPEUTICS FOR THE TREATMENT OF BRAIN DISORDERS” (The University of Florida Research Foundation, Inc., priority 2019, published 2023)
